Test results from US20170129903A1, “COMPOUNDS COMPRISING 1,1a,2,5a-TETRAHYDROSPIRO[INDOLE-3,2a-PYRROLE]-2,5a-DIONE SYSTEM AS INHIBITORS P53-MDM2 PROTEIN-PROTEIN INTERACTION” (ADAMED SP. Z O.O., priority 2014, published 2017).

The chains behind the UniProt entries cited, without tags or fusion partners. Residues count along the entry.
UniProt Q00987, 1-111 limits assumed: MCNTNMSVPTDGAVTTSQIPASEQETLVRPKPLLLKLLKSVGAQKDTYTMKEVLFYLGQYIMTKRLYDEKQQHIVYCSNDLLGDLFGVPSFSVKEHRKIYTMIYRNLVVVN

Legend:
[1] = target: p53-Mdm2 interaction (N-terminal domain of Mdm2 protein, amino acids 1-111) (Homo sapiens, UniProt Q00987); experiment: Fluorescence polarization (FP) binding assay of p53-Mdm2 interaction; settings: read-out: Ki (nM) p53-Mdm2, 130 nM Mdm2, FAM-labelled p53 peptide, Ki transformed from IC50 using Kenakin equation
Method: The inhibition of p53-Mdm2 interaction was measured using a fluorescence polarization (FP) binding assay. FP measures the rotational movement of molecules in a homogenous suspension. For this assay, N-terminal domain of Mdm2 protein (amino acids 1-111) is combined with a fluorescein-labelled (FAM) peptide derived from p53 trans-activation domain. Upon excitation of the fluorescent ligand with linearly polarized light, […]. If the peptide is bound by Mdm2, rotation will slow down and the perpendicular component will decrease. […]
Fluorescence polarization experiments were read on Tecan Infinite M1000 reader with the 470 nm excitation and 520 nm emission filters for fluorescein. The fluorescence polarization was measured in black 96-well plates (Corning, CLS3991) in room temperature. […]
The test was performed by combining successive dilution of compounds diluted in dimethyl sulfoxide (DMSO, 5% final concentration) with 130 nM Mdm2 in reaction buffer (PBS, 0.1% CHAPS, 5 mM DTT (dithiothreitol)). […] Final reading was performed after 90 minutes of incubation. Dose-dependent binding curves and IC50 values were calculated using GraphPad Prism5 and next transformed to Ki values using Kenakin equation.

[2] = test system: SJSA-1 osteosarcoma cell line; experiment: MTT cell viability assay; settings: read-out: IC50 (μM) SJSA-1, 72 h incubation, average of 2-5 experiments
Method: The effect of the invented p53-Mdm2 inhibitors on cell viability has been assessed using MTT assay. It is a colorimetric assay that measures conversion of tetrazolium ring of the soluble yellow dye (MTT) into insoluble purple formazan. This process is catalysed solely in mitochondrial dehydrogenases of living cells.
Cells were seeded on 96-well plates and then treated with successive dilutions of tested compounds. After 72 h incubation, MTT was added to the final concentration 0.5 mg/ml. The cells were further incubated for the next 4 h. Then the solution was drained and the remaining formazan crystals were dissolved in 100 μl DMSO. […] All the MTT experiments were independently repeated 2-5 times. Dose-dependent binding curves and IC50 values were calculated using GraphPad Prism 5.

Compound: CCc1cccc(-n2nc3c(c2C(C)C)C2(C(=O)Nc4cc(Cl)ccc42)N(c2cc(Cl)ccc2C)C3=O)c1 (centres unmarked)
- Ki [1]: 141 nM
- IC50 [2]: 14.7 µM
